{"source": "patent US11833137B2", "about": "“Substituted chromenones, IRE1 inhibitors, and methods of using same” (The Wistar Institute, priority 2018, dated 2023)", "tested_on": "XBP-1s expression, 5TGM1 cells", "assay": "XBP-1s immunoblot in 5TGM1 multiple myeloma cells"}
{"smiles": "O=Cc1c(O)ccc2c3c(c(=O)oc12)CNCC3", "values": [{"measurement": "suppression of XBP-1s expression, long term", "setting": "10 μM for a course of 3 days", "value": "recovered significantly in cells treated for 2 days"}, {"measurement": "overall comparison of inhibition of IRE-1 / XBP-1s expression in whole cells", "setting": "summary statement", "value": "most efficient aldehyde compounds in inhibiting IRE-1 in intact cells"}]}
